Source: ChEMBL document CHEMBL4007424, “Design and Synthesis of Enantiomerically Pure Decahydroquinoxalines as Potent and Selective κ-Opioid Receptor Agonists with Anti-Inflammatory Activity in Vivo” (J Med Chem, 2017)

Experiment: Displacement of [3H]DPDPE from delta-type opioid receptor in guinea pig brain membranes after 120 mins by solid scintillation counting

For `O=C(Cc1ccc(Cl)c(Cl)c1)N1CCN[C@H]2CCC[C@H](N3CCCC3)[C@H]21`, which Ki is on record?
The Ki was 915 nM.
